Reference: US20220081676A1, “MICROFLUIDIC DEVICES FOR TATTOO PIGMENT SAFETY” (priority 2019, published 2022)

Tested on: epidermal cells in a Skin-Chip (microfluidic OT-chip)
Details: 15-minute exposure; citric acid 0.6M
From the text: In some embodiments, a live-dead staining is used for determining cell viability.

O=C(O)CO [glycolic acid]
cell death by DRAQ7 staining, dead cells/mm^2: highest cell death
